# Measured affinities in a library of Ab-14 light chain variants

Source: Li et al. 2023 (doi:10.1038/s41467-023-39022-2), MIT Lincoln Laboratory and A-Alpha Bio; data file from the FLAb repository.

Binding partner: SARS-CoV-2 spike HR2 peptide, sequence PDVDLGDISGINAS.

Each scFv is VH, three GGGGS repeats, VL, as in the parent Ab-14, and differs from it in the CDRs of the light chain only.
VH: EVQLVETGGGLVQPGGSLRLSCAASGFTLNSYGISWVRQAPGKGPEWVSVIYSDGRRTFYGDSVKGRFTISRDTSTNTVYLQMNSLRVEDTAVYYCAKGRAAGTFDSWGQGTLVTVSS
VL: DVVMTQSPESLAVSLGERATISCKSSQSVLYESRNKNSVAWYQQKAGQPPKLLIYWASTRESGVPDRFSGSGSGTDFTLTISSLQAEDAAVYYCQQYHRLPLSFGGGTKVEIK

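Phage display of a naive human antibody library on the peptide gave the parent. Designed CDR sequences, proposed from the first random library and measured here. Their group label is 14L_GP_Gibbs (GP: Gaussian process model; Gibbs: Gibbs sampling; a sequence that several methods proposed may carry one label only). AlphaSeq pools MATa yeast showing the antibodies with MATalpha yeast showing the peptide. Mating (16 h, 30 °C) was followed by selection of diploids and sequencing of their barcodes. A regression on co-assayed BCL2-family reference pairs converts the normalised counts of each replicate to an apparent Kd. Each pool was mated in six replicate cultures.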

Substitutions are numbered in sequence along the VL above, starting at 1 (not Kabat). Numbers give log10(Kd / nM), so 0 is 1 nM and 3 is 1 µM. Smaller is tighter. Replicates are averaged; those with no signal do not enter the mean. "n.d." marks a missing value. The strain was present, yet no cells mated with the target were sequenced in that replicate, which points to weak or no binding. Of ten entries with the parent sequence, four were seen in most replicates (averages 0.34 to 2.37), three in one and three in none, so single entries are noisy. Empty control strains, which show no peptide, gave a signal in 4% of pairings with all light chain designs; the median was 2.64 and 95% of these signals were weaker than 1.59. No background was subtracted. For each scFv, signals with the empty controls are counted beside the result, with their mean in brackets. The range of this assay differs from that of the first round, and the authors advise against merging the two. The authors' rule: three or more of the six replicates give a measured affinity, fewer mean a poor binder.

{"changes": "K24A/S25F/V29H/K36Q/W56E/E61C/S62D", "log10 Kd (nM) by replicate": "0.55 0.31 0.48 0.50 0.22 0.56", "mean log10 Kd (nM)": "0.44", "signal with controls": "0/18"}
{"changes": "S25L/S26P/L30P/S33E/N35C/K36F/W56H/T59Q", "log10 Kd (nM) by replicate": "1.39 0.78 1.02 0.85 0.80 0.75", "mean log10 Kd (nM)": "0.93", "signal with controls": "0/18"}
{"changes": "K24A/S25L/L30G/Y31G/K36P/W56H/S62Q", "log10 Kd (nM) by replicate": "0.24 0.62 0.36 0.43 0.44 0.44", "mean log10 Kd (nM)": "0.42", "signal with controls": "1/18 (3.22)"}
{"changes": "S25C/S26K/V29S/L30D/K36F/W56N", "log10 Kd (nM) by replicate": "0.29 0.24 0.01 -0.04 -0.05 0.00", "mean log10 Kd (nM)": "0.07", "signal with controls": "2/18 (3.35)"}
{"changes": "S25L/V29M/L30P/S33Q/W56N/T59L/S62V/Q96C", "log10 Kd (nM) by replicate": "-0.20 -0.03 -0.04 -0.55 -0.19 1.11", "mean log10 Kd (nM)": "0.01", "signal with controls": "0/18"}
{"changes": "S25L/S26W/Q27M/Y31G/K36Q/S38A/W56S/S62L", "log10 Kd (nM) by replicate": "2.29 0.48 0.34 0.80 -0.01 0.01", "mean log10 Kd (nM)": "0.65", "signal with controls": "0/18"}
{"changes": "S25L/S28G/Y31M/W56E/T59Q/S62E", "log10 Kd (nM) by replicate": "-0.52 -0.49 -0.69 -1.10 -0.73 -0.43", "mean log10 Kd (nM)": "-0.66", "signal with controls": "0/18"}
{"changes": "S25L/S26Q/Q27W/L30M/Y31L/E32Q/W56Q/T59Q/E61M/S62M", "log10 Kd (nM) by replicate": "0.90 1.41 0.83 0.56 0.71 1.58", "mean log10 Kd (nM)": "1.00", "signal with controls": "0/18"}
{"changes": "S25V/S26M/S33D/K36A/S38N/W56N/A57G/E61C", "log10 Kd (nM) by replicate": "0.16 0.09 0.09 0.00 0.08 0.22", "mean log10 Kd (nM)": "0.11", "signal with controls": "2/18 (2.43)"}
{"changes": "S25I/S26Q/S28E/V29G/L30Y/S33D/W56S/E61C/S62P", "log10 Kd (nM) by replicate": "0.32 0.05 0.03 -0.09 -0.10 0.22", "mean log10 Kd (nM)": "0.07", "signal with controls": "0/18"}
{"changes": "S25M/V29Q/S33E/N35A/K36S/S38A/W56Q/T59Q/E61M", "log10 Kd (nM) by replicate": "0.08 0.04 0.05 -0.16 -0.13 0.27", "mean log10 Kd (nM)": "0.03", "signal with controls": "2/18 (3.12)"}
{"changes": "S25C/S26M/V29S/W56N/S62V", "log10 Kd (nM) by replicate": "0.11 -0.04 -0.12 -0.11 0.03 0.07", "mean log10 Kd (nM)": "-0.01", "signal with controls": "2/18 (2.75)"}
{"changes": "S25V/S26Q/Q27G/S28W/V29Q/S38A/W56N/E61C/S62D", "log10 Kd (nM) by replicate": "1.84 1.14 1.07 1.36 1.05 1.32", "mean log10 Kd (nM)": "1.30", "signal with controls": "0/18"}
{"changes": "S25L/V29M/K36V/S38N/W56S/S103M", "log10 Kd (nM) by replicate": "-0.14 -0.30 -0.31 -0.40 -0.37 -0.15", "mean log10 Kd (nM)": "-0.28", "signal with controls": "2/18 (3.29)"}
{"changes": "S25I/S26Y/V29G/L30P/W56S/H98F", "log10 Kd (nM) by replicate": "0.39 0.24 0.41 0.27 0.19 0.51", "mean log10 Kd (nM)": "0.34", "signal with controls": "1/18 (3.20)"}
{"changes": "S25I/V29N/V39I/W56N/S58N", "log10 Kd (nM) by replicate": "-0.02 -0.29 -0.35 -0.39 -0.32 -0.04", "mean log10 Kd (nM)": "-0.24", "signal with controls": "0/18"}
{"changes": "S25V/S26D/V29W/L30W/W56N/S62R", "log10 Kd (nM) by replicate": "0.24 0.21 0.28 0.01 0.16 0.23", "mean log10 Kd (nM)": "0.19", "signal with controls": "2/18 (2.55)"}
{"changes": "S25L/S33M/N35M/W56Q/S58V/E61M", "log10 Kd (nM) by replicate": "0.41 0.23 0.03 0.35 0.24 0.40", "mean log10 Kd (nM)": "0.28", "signal with controls": "1/18 (1.88)"}
{"changes": "S25I/V29Q/S33D/K36H/N37K/W56N/E61C", "log10 Kd (nM) by replicate": "0.37 0.19 0.07 -0.07 -0.02 0.12", "mean log10 Kd (nM)": "0.11", "signal with controls": "3/18 (3.06)"}
{"changes": "S25V/S26F/Q27P/V29E/Y31G/N37M/W56D", "log10 Kd (nM) by replicate": "0.22 -0.10 0.18 -0.05 0.16 0.40", "mean log10 Kd (nM)": "0.13", "signal with controls": "0/18"}
{"changes": "S25A/V29E/L30P/S33D/W56N/T59Y/E61C/S103H", "log10 Kd (nM) by replicate": "1.73 1.30 1.46 1.26 1.67 1.83", "mean log10 Kd (nM)": "1.54", "signal with controls": "2/18 (2.42)"}
{"changes": "K24F/S25L/S26E/V29T/W56N/E61C", "log10 Kd (nM) by replicate": "-0.28 -0.15 -0.39 -0.23 -0.26 -0.32", "mean log10 Kd (nM)": "-0.27", "signal with controls": "0/18"}
{"changes": "S25L/S28L/L30E/Y31M/N35W/K36W/W56S/T59Q/E61N/S62E", "log10 Kd (nM) by replicate": "n.d. 2.36 1.21 n.d. 2.37 1.59", "mean log10 Kd (nM)": "1.88", "signal with controls": "0/18"}
{"changes": "S28L/V29E/L30Y/S33D/N37M/W56N/T59Y/E61L", "log10 Kd (nM) by replicate": "0.30 0.40 0.08 0.16 0.03 0.13", "mean log10 Kd (nM)": "0.18", "signal with controls": "1/18 (2.42)"}
{"changes": "S25I/S28E/V29D/L30P/S33N/K36H/W56H/T59L", "log10 Kd (nM) by replicate": "0.33 0.22 0.11 0.00 0.11 0.25", "mean log10 Kd (nM)": "0.17", "signal with controls": "2/18 (3.32)"}
{"changes": "Q27G/V29Q/K36S/W56H/Q96D", "log10 Kd (nM) by replicate": "0.34 0.55 n.d. -0.44 -0.48 0.50", "mean log10 Kd (nM)": "0.09", "signal with controls": "0/18"}
{"changes": "K24F/S25L/S33E/N35L/K36D/W56N/E61C", "log10 Kd (nM) by replicate": "1.15 0.83 1.26 0.79 1.34 1.26", "mean log10 Kd (nM)": "1.10", "signal with controls": "0/18"}
{"changes": "S25L/S26Y/V29Q/E32D/W56Q/T59H/S62V", "log10 Kd (nM) by replicate": "0.43 0.45 0.44 0.51 0.46 0.45", "mean log10 Kd (nM)": "0.46", "signal with controls": "1/18 (3.73)"}
{"changes": "Q27A/V29Q/L30E/S33D/W56H/E61L/S62Q", "log10 Kd (nM) by replicate": "0.31 0.28 0.16 -0.08 0.18 0.11", "mean log10 Kd (nM)": "0.16", "signal with controls": "0/18"}
{"changes": "S25V/Q27M/N35V/W56E/T59Q/S103I", "log10 Kd (nM) by replicate": "0.85 0.61 0.67 0.54 0.67 0.77", "mean log10 Kd (nM)": "0.68", "signal with controls": "1/18 (3.06)"}
{"changes": "S25I/K36W/S38A/W56E/T59Q", "log10 Kd (nM) by replicate": "0.49 0.20 0.20 0.15 0.12 0.32", "mean log10 Kd (nM)": "0.25", "signal with controls": "0/18"}

The first 3 entries again:

| changes | log10 Kd (nM) by replicate | mean log10 Kd (nM) | signal with controls |
|---|---|---|---|
| K24A/S25F/V29H/K36Q/W56E/E61C/S62D | 0.55 0.31 0.48 0.50 0.22 0.56 | 0.44 | 0/18 |
| S25L/S26P/L30P/S33E/N35C/K36F/W56H/T59Q | 1.39 0.78 1.02 0.85 0.80 0.75 | 0.93 | 0/18 |
| K24A/S25L/L30G/Y31G/K36P/W56H/S62Q | 0.24 0.62 0.36 0.43 0.44 0.44 | 0.42 | 1/18 (3.22) |